Measured values published in PubChem BioAssay AID1117267 (The Scripps Research Institute Molecular Screening Center, 2014).
This is a selection; strong and weak results do not stand in their true shares. Some tests of the compounds listed are not included; inactive here does not mean inactive elsewhere. Active and inactive are the calls of the source.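 Rule for the calls: active = activation above the mean of all tested compounds plus 3 SD (cut at about 9.5% in these data); inactive = the rest.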

Assay: compounds raising TTR promoter-driven luciferase – cell-based, luminescence, SH-SY5Y, TTR promoter Gaussia luciferase, primary screen (AID 1117267);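 note: cells exposed to compounds for one day before reading; 0% = median of all test compound wells on the plate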
Conditions: at 16.7 µM, active compounds read high, 100% = recombinant luciferase protein wells

**Q.** With `CN(C)c1cccc(C(=O)NCC2(N(C)C)CCCCC2)c1` as the compound, how does the activation read?
**A.** inactive: 1.42%

**Q.** For `O=C(OCCN1CCCC1)C(O)(c1ccccc1)c1ccccc1`, which activation is on record?
**A.** inactive: 0.03%

**Q.** For `CC(C)N1C(=O)CC2(CCN(CCOC(=O)C(O)(c3ccccc3)c3ccccc3)CC2)C1=O`, which activation is on record?
**A.** inactive: -1.43%
